Results from article PMC8016950.

Protein sequences, listed by entry. Tags and fused reporters are not part of them. Chains listed by the source or under a name are the forms on record and can include a tag or linker.
UniProt P17931, other isoform, or with tags, fused parts or gaps, stated change not applied: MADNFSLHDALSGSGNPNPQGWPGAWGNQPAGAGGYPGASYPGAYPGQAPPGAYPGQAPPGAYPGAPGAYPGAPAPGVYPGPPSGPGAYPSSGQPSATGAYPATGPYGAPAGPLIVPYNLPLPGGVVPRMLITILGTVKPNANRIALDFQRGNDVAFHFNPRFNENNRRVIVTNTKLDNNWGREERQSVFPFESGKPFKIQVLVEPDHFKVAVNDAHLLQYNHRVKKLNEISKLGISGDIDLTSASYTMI

target: full length human galectin-3 (hGal3), Cys173 mutated to Thr (human) (UniProt P17931); experiment: ELISA; recombinant hGal3 immobilized on a microtiter plate; dilution series of Fab; detection with goat anti-human-kappa-light-chain-IgG alkaline phosphatase conjugate

Row | Substance | Kd
1 | humanized αhGal3-Fab version "5I8C" (CDRs of M3/38 grafted on the framework of the human HIV-1 neutralizing Fab VRC34.01) | 6.9 nM
2 | humanized αhGal3-Fab version "3KYM" (CDRs of M3/38 grafted on the framework of a human anti-LINGO-1 mAb) | 2800 nM
3 | humanized αhGal3-Fab version "4KQ3" (CDRs of M3/38 grafted on the framework of a human anti-IL-17A antibody) | 5.9 nM
